Test system: HDME cells
Assay: HDME cell proliferation
Type: cell-based, human
Procedure: FIGS. 19A, 19B, 19C, 19D and 19E display the modulation of endothelial cell proliferation by an α3β1 integrin binding peptide from TSP1. FIG. 19A: Proliferation of BAE cells was assayed in the presence of the indicated concentrations of TSP1 peptide 678 (FQGVLQNVRFVF (SEQ ID NO:6), ●) or the control peptides 686 (FQGVLQAVRFVF (SEQ ID NO:10), ▴), and 690 (FQGVLQNVAFVF (SEQ ID NO:11), ◯). Briefly, 100 μl of a 5×10^4 cell/ml suspension of BAE cells were seeded in triplicate into 96 well tissue culture plate in DMEM medium containing 1% FCS, 10 ng/ml of FGF2 and peptides at 1-40 μM concentrations. Cells were incubated for 72 h, and proliferation was measured using the Celltiter tetrazolium assay (Promega). FIG. 19B: HUVE cell proliferation was measured at 72 h for cells plated on wells coated with the indicated concentrations of TSP1 (solid bars) or 1 μg/ml of antibody P1B5 (anti-α3β1 integrin) (striped bar) or P1D6 (anti-α5 integrin) in medium 199 containing 5% FCS (striped bar). […] Proliferation was determined at 72 h, and is presented as a percent of the control, mean±S.D., n=3 for experimental points and n=6 for control. FIG. 19D: HUVE cell proliferation was determined in the presence of the indicated concentrations of TSP1 peptide 678 immobilized on the substrate (solid bars) or added in solution (striped bars). […]

## TSP1: calcium replete thrombospondin-1 purified from human platelets
  HDME cell proliferation stimulated by FGF2, soluble substance: inhibited
